Binding of CDR-mutated scFvs to a peptide of the spike HR2 region

From the AlphaSeq antibody data of Li et al. 2023 (doi:10.1038/s41467-023-39022-2), copy in the FLAb collection.

Target: peptide PDVDLGDISGINAS, taken from heptad repeat 2 (HR2) of SARS-CoV-2 spike.

Ab-14 is the parent antibody, in scFv form: VH, then the linker GGGGSGGGGSGGGGS, then VL. The heavy chain is unchanged in all variants.
VH: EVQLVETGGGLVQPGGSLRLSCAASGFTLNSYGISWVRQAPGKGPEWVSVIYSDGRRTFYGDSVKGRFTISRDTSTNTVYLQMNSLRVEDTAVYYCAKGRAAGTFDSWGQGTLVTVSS
VL: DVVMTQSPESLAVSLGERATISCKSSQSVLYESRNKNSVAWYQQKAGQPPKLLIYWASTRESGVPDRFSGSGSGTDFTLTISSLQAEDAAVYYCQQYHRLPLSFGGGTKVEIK

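This is the validation round: designs drawn from the data on random variants, tested in the same kind of assay. Group labels follow the data file (En: ensemble of fine-tuned language models; GP: Gaussian process model; HC: hill climbing; Gen: genetic algorithm; Gibbs: Gibbs sampling; a sequence that several methods proposed may carry one label only). The scFvs were displayed on barcoded MATa yeast, the peptide on MATalpha yeast. Pairs that bind mate more often; barcode pairs of the diploids are counted by sequencing. Read counts were normalised to the haploid input and turned into Kd by a linear fit to BCL2-family pairs of known affinity, for each replicate. Mating was done six times.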

Variants are written as CDR1, CDR2 and CDR3 of the light chain (limits as in the source). Parent: KSSQSVLYESRNKNSVA, WASTRES, QQYHRLPLS. Variants here have more than six changes. Kd is apparent (estimated from mating counts) and averaged on the log scale over replicates with a signal. Smaller is tighter. "nd" marks a missing value. The strain was present, yet no cells mated with the target were sequenced in any replicate, which points to weak or no binding. Entries are sorted by rising average, undetected variants last.

For MISDLTAYGSRNKNSVA / DLSTRGS / QQYHRLPLS [En_HC], the assay gave 610 pM (6 of 6 replicates). For KLSMGVDYGDRNKNSVA / HASTRES / QQYHRLPLS [GP_Gibbs], the assay gave 850 pM (6 of 6 replicates). For TITQLTSSFSQNINNVA / EVSTRLN / QQYDRLPLA [En_Gen], the assay gave 900 pM (6 of 6 replicates). With KLQQSWEYESRNKNNVA / MGSTRED / QQYHRLPLS [GP_Gibbs] the result was 1.0 nM (6 of 6 replicates). Variant KLSMSWMQEERNKNSVA / QASQREQ / QQYHRLPLS [GP_Gibbs] showed 1.0 nM (6 of 6 replicates). For SLQTDYSIAQDRWSNVA / HADQREA / QQYFRLPIV [En_Gibbs], the assay gave 1.2 nM (6 of 6 replicates). With MLPESTPQQISNKNPVA / GAQHTAV / QQYDRLPLT [En_Gibbs] the result was 1.3 nM (6 of 6 replicates).

For QLPNYRGDGYLQKNNVA / GGTERSH / QQYMRLPLF [En_Gibbs], the assay gave 1.4 nM (6 of 6 replicates). Variant MMSQVTGLGQRQRNNVA / QTSTRED / QQYDRLPLI [En_Gen] showed 1.4 nM (6 of 6 replicates). With KMQQSYLYESRNCNSVA / NASTRLW / QQYHRLPLS [GP_Gibbs] the result was 1.5 nM (6 of 6 replicates). With KFEQWDFSQNRDDNSIA / HADDLVT / QQYSQLPLT [En_Gibbs] the result was 2.8 nM (6 of 6 replicates). Variant NISYLQGVSTNSVNNVA / QASMRAP / QYYQRLPLC [En_Gibbs] gave 2.8 nM (6 of 6 replicates). Variant SMGWAHENGDNKMNNIA / DETHLAY / QQYSRLPIT [En_Gibbs] showed 3.1 nM (6 of 6 replicates). Variant KVSGSQLYESRNSNAVA / NASLRMS / QQYHRLPLS [GP_Gibbs] gave 3.2 nM (6 of 6 replicates).

With NMQMQDDLMLNAKQNVA / GVDMRLE / QQYFRLPLL [En_Gibbs] the result was 3.4 nM (6 of 6 replicates). With TISQMFLGESRNRNSVA / QASLRES / QSYDRLPLS [En_HC] the result was 3.4 nM (6 of 6 replicates). Variant KFSQMANQFSVSMNAVA / EMSTRED / QQYNRLPLA [En_Gen] gave 3.4 nM (6 of 6 replicates). Variant KISMYLQKESKNKNSVA / EMVNRES / QQYDRLPLS [En_HC] gave 4.0 nM (6 of 6 replicates). Variant SMSWAHENGDNWMNSIA / DATHLAY / QQYSRLPIT [En_Gibbs] showed 9.2 nM (6 of 6 replicates). Variant KISGYLNKESKEKNSVA / EMVNRES / QQYDRLPLS [En_HC] gave 10 nM (6 of 6 replicates). For KLQCSELMESRNSNSVA / HASKRES / QDYHRLPLS [GP_Gibbs], the assay gave 11 nM (6 of 6 replicates).

With TISQLYNMGQFAINSVA / QASERCN / QQYDRLPLM [En_Gen] the result was 12 nM (6 of 6 replicates). For KVSAFMRGLMMRTDSIA / DNETRNS / QQYDRLPLS [En_Gen], the assay gave 12 nM (6 of 6 replicates). Variant KLMGSMLYEQRMKNSVA / QASHRMS / QQYHRLPLS [GP_Gibbs] gave 15 nM (6 of 6 replicates). With KMEMDFRGNDVNRNSIA / SDEAVTR / QHYARLPLI [En_Gibbs] the result was 15 nM (1 of 6 replicates). With KLSLVLGVSKQSEKNIA / NSRLKVA / QQYDRLPLT [En_Gibbs] the result was 21 nM (5 of 6 replicates). With HMRMECYQYDNYGKAVA / HANQRHN / QQYSRLPFS [En_Gibbs] the result was 52 nM (5 of 6 replicates). Variant KIQYQYRFEQLSKNNIA / EVVTRLK / QQYHRLPLS [En_HC] showed 71 nM (6 of 6 replicates).

With KFQNLMGTMGKQNQNIA / QGAITRV / QQYQRLPLW [En_Gibbs] the result was 76 nM (6 of 6 replicates). Variant HMSAVTMMGSRHRNSVA / QMTTREN / QQYDRLPLA [En_Gen] gave 98 nM (1 of 6 replicates). Variant HIGLATMSEETVRNSVA / NNSTRES / QQYDRLPLS [En_Gen] showed 120 nM (6 of 6 replicates). Variant TIGQVMMYESRNKNSVA / QTSTREE / QDYDRLPLS [En_HC] gave 200 nM (1 of 6 replicates). With KLSMETAWLTGQMDSIA / HVEIRWA / QQYHKLPLI [En_Gibbs] the result was 230 nM (3 of 6 replicates). Variant ILYDSVGTLSRNNNSVA / DNSTRES / QQYDRLPLS [En_HC] gave 1.3 µM (3 of 6 replicates). Variant NMTLQVFNGSRNKYNIA / AEVKRVY / QQYQRLPLM [En_Gibbs] gave 1.9 µM (4 of 6 replicates).

With MIHESSGLMSHKQSSIA / DNSTRED / QQYDRLPLS [En_Gen] the result was 2.8 µM (2 of 6 replicates). With KLTQFYRMESRNKNSVA / DNSTRES / QDYDRLPLS [En_HC] the result was nd (0 of 6 replicates). With EISILGEEVTGHYSNVA / EQHVTDM / QQYFRLPLS [En_Gibbs] the result was nd (0 of 6 replicates). Variant QFARAMYHGLNDNQNIA / DAMTYIK / QQYSRLPLF [En_Gibbs] showed nd (0 of 6 replicates). Variant SMFEKEYEELQPENNIA / DETARMV / QQYFRLPLL [En_Gibbs] showed nd (0 of 6 replicates).

Picked from the list: the 5 lowest averages where every replicate gave a value.

{"CDR-L1": "MISDLTAYGSRNKNSVA", "CDR-L2": "DLSTRGS", "CDR-L3": "QQYHRLPLS", "group": "En_HC", "apparent Kd": "610 pM", "replicates with signal": "6/6"}
{"CDR-L1": "KLSMGVDYGDRNKNSVA", "CDR-L2": "HASTRES", "CDR-L3": "QQYHRLPLS", "group": "GP_Gibbs", "apparent Kd": "850 pM", "replicates with signal": "6/6"}
{"CDR-L1": "TITQLTSSFSQNINNVA", "CDR-L2": "EVSTRLN", "CDR-L3": "QQYDRLPLA", "group": "En_Gen", "apparent Kd": "900 pM", "replicates with signal": "6/6"}
{"CDR-L1": "KLQQSWEYESRNKNNVA", "CDR-L2": "MGSTRED", "CDR-L3": "QQYHRLPLS", "group": "GP_Gibbs", "apparent Kd": "1.0 nM", "replicates with signal": "6/6"}
{"CDR-L1": "KLSMSWMQEERNKNSVA", "CDR-L2": "QASQREQ", "CDR-L3": "QQYHRLPLS", "group": "GP_Gibbs", "apparent Kd": "1.0 nM", "replicates with signal": "6/6"}

Empty control strains, which show no peptide, gave a signal in 4% of pairings with all light chain designs; the median was 430 nM and 95% of these signals were weaker than 38 nM. No background was subtracted. Values of this round are not directly comparable with the first-round values of the same sequences. The authors' rule: three or more of the six replicates give a measured affinity, fewer mean a poor binder.